Our source for the IC50 values is PMC8820617, “Machine learning-driven identification of drugs inhibiting cytochrome P450 2C9” (PLoS Computational Biology, 2022).

Protein sequences, listed by entry. Tags and fused reporters are not part of them.
UniProt P11712, whole entry: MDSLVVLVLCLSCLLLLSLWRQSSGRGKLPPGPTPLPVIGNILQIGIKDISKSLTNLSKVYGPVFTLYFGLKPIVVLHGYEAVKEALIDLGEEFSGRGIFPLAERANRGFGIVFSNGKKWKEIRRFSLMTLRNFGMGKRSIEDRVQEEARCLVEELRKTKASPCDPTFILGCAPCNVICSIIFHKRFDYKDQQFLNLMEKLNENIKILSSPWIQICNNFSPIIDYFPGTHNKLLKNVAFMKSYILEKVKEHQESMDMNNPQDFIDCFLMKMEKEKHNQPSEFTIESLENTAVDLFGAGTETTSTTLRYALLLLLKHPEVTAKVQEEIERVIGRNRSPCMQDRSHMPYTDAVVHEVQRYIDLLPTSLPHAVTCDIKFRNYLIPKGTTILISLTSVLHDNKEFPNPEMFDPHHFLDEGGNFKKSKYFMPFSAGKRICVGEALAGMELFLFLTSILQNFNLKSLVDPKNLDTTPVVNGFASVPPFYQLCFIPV

In this experiment the target is CYP2C9 supersomes (Homo sapiens, UniProt P11712). In words: Inhibition of CYP2C9 on recombinant supersomes (diclofenac 4-hydroxylation, LC/MS-MS). The note with it: IC50 values determined with CYP2C9 supersomes, substrate diclofenac 5 μM. As for the experimental part: A CYP2C9-specific substrate (diclofenac) and recombinant supersomes were incubated with and without the study compounds (according to the protocol optimized by the Service Provider Admescope (Finland)). The concentrations of the studied compounds were 0.3, 1, 3, 10, 20, 30, 50, 60, 70, 90 and 100 μM. […] The enzymatic reactions were started after 6 min of preincubation by adding NADPH and terminated after 15 min by adding ice-cold acetonitrile. The supernatant was collected and centrifuged for analyses. The samples were analyzed by LC/MS-MS to determine the level of metabolites in the absence and presence of a candidate molecule. Spiked standard samples were not used, but quantification based on relative peak areas was performed (solvent control = 100%). The disappearance was evaluated as relative LC/MS peak areas, and the 0-min time points were marked as 100%. The disappearance rate was used to calculate the half-life and in vitro clearance. For details of the method, see S2 Text.
Details of analytical method for inhibition tests using CYP2C9 supersomes and calculation of IC50
Test compound concentrations: Test compound Test concentrations (µM)
Diclofenac at 5 µM for CYP2C9
Substrates and concentrations:
Instrumentation: Waters Acquity UPLC + Thermo TSQ Endura triple quadrupole MS
The IC50 value for the test compound was determined by fitting following equation to the data […]

As for `Cc1nc(Nc2ncc(C(=O)Nc3c(C)cccc3Cl)s2)cc(N2CCN(CCO)CC2)n1` [Dasatinib], the IC50 (usually the concentration that gives 50% inhibition) stood at 85 µM.
